Screening results as filed in PubChem BioAssay.
Hits are enriched below; roughly 16% of the tested compounds scored in any of these assays.
TDP1 cell noCPT: qHTS for Inhibitors of human tyrosyl-DNA phosphodiesterase 1 (TDP1): qHTS in cells in absence of CPT; DT40 Tdp1-/- hTDP1 cells, no CPT, ATP luminescence, 48 h; Potency, µM (highest dose often 46.2 µM), for the others: at the highest dose activity change, negative = growth inhibition, actives largely listed as inhibitors; 420,000 compounds, 15% hits; also: potency is read from the fitted curve at half-maximal effect; % is scaled to controls: 0 for no effect and ±100 for the full control effect; nearly all actives have a fitted effect of over 55% in size
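Chicken DT40 Tdp1-/- cells complemented with human TDP1, screened without camptothecin (DMSO vehicle only), 400 cells/well. Compounds pin-transferred, cells incubated at 37 °C for at least 48 hr. Growth read as ATP-dependent luminescence (CellTiter-Glo, 30 min at RT).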
TDP1 cell CPT: DT40-hTDP1 cell growth loss with CPT. chicken DT40 Tdp1-/-;hTDP1 cells + 20 nM CPT, ATP luminescence, 48 h. Potency, µM (series often up to 46.2 µM), for the others: at the top dose activity change, negative = growth inhibition, most hits filed as inhibitors. 420,000 compounds, 12% hits. AID 686979; also: potency is read from the fitted curve at half-maximal effect; % is scaled to controls: 0 for no effect and ±100 for the full control effect; nearly all actives have a fitted effect of over 55% in size
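Chicken DT40 Tdp1-/- cells stably complemented with human TDP1 were seeded at 400 cells/well in medium containing 20 nM camptothecin, exposed to pin-transferred compounds, and grown at 37 °C for at least 48 hr. Viability was read as ATP luminescence.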
miR-21 FLuc: raises the signal of a miR-21 reporter; HeLa miR-21 FLuc reporter, luciferase, 48 h; Potency, µM (top dose mostly 38.3 µM), for inactives: at the highest dose reporter change, positive = more light; AID 2288; 340,000 tested, under 10 active; active = well fitted rising curve with a large enough effect; inconclusive = small, poorly fitted or top-dose-only effect; inactive = no such curve, though single readings can be large or run the other way;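 note: % of control where 0% means no effect; miR-21 action dims this reporter so a rising signal means less miR-21 action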
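Using DMEM plus 10% FBS, HeLa miR-21-FLuc cells are incubated with test compounds (final up to about 40uM) for 48 hours; firefly luciferase signal is then imaged following reagent-mediated lysis.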
TDP1 inh: blocks human tyrosyl-DNA phosphodiesterase 1; Q9NUW8; recombinant TDP1, AlphaScreen DNA substrate cleavage; Potency, µM (top dose mostly 130 µM), without a hit: at the highest dose activity change, negative = inhibition, usual class: inhibitors; 350,000 compounds, 0.28% hits; AID 485290; also: potency is read from the fitted curve at half-maximal effect; % is scaled to controls: 0 for no effect and ±100 for the full control effect; nearly all actives have a fitted effect of over 40% in size
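Recombinant E. coli-expressed Tdp1 (1 nM) preincubated with compound 15 min at RT, then 5'-biotin/3'-phosphotyrosine-FITC DNA substrate (15 nM) added for 5 min. AlphaScreen beads (10 ug/ml) added, 10 min RT; tyrosine-FITC cleavage read as signal loss.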
uPA surface inh: blocks generation of uPA at the cell surface; cell surface uPA generation assay, qHTS; Potency, µM (doses to about 38.3 µM), inactives show top-dose activity change, negative = inhibition, most hits filed as inhibitors; 330,000 compounds, 0.31% hits; AID 540303; active = well fitted inhibition curve with a large enough effect; inconclusive = small, poorly fitted or top-dose-only effect; inactive = no such curve, though single readings can be large or run the other way; tested in mouse RAW 264.7 cells; also: potency is read from the fitted curve at half-maximal effect; % is scaled to controls: 0 for no effect and ±100 for the full control effect; nearly all actives have a fitted effect of over 55% in size
Active calls of the source: *. Unless noted, calls follow the shape of the dose curve; as a rule, active = well fitted curve in the direction sought with a large enough effect; inconclusive = small, poorly fitted or top-dose-only effect, or another doubt; inactive = no such curve, though single readings can be large; an effect the other way counts as inactive or inconclusive.

Screening CCOc1ccc(CC(=O)NCCS(=O)(=O)N2CCN(c3ccccc3OC)CC2)cc1 returned TDP1 cell noCPT 21µM*, TDP1 cell CPT 12µM*, miR-21 FLuc 15% and TDP1 inh -2%.
C=CCN1C[C@H](C(=O)N(CCCN(C)C)C(=O)NCC)C[C@@H]2c3cccc4[nH]cc(c34)C[C@H]21 was read as TDP1 cell noCPT -18% and TDP1 cell CPT -7%.
For O=C1CCCC(=O)N1CCCCCCN1C(=O)CCCC1=O the results were TDP1 cell noCPT -5% and TDP1 cell CPT -4%.
`COc1ccc(C2Nc3ccccc3C(=O)N2C2CCCCC2)cc1` (stereo not given) gave TDP1 cell noCPT inconclusive, TDP1 cell CPT inconclusive, miR-21 FLuc -16%, TDP1 inh 1% and uPA surface inh -14%.
Screening O=C(CC1CCCC1)NCCS(=O)(=O)N1CCN(c2ccc(F)cc2)CC1 returned TDP1 cell noCPT inconclusive, TDP1 cell CPT inconclusive and uPA surface inh 13%.
`COc1ccc(CC(=O)NCCS(=O)(=O)N2CCN(c3ccccc3OC)CC2)cc1` gave TDP1 cell noCPT inconclusive, TDP1 cell CPT 29µM* and uPA surface inh -1%.
COc1ccccc1N1CCN(S(=O)(=O)CCNC(=O)CC2CCCCC2)CC1 was read as TDP1 cell noCPT 16µM*, TDP1 cell CPT 16µM* and uPA surface inh 1%.
`Cc1ccc(CO)cc1Nc1ncnc2onc(-c3ccc(F)cc3)c12` gave TDP1 cell noCPT inconclusive, TDP1 cell CPT inconclusive, miR-21 FLuc -2% and TDP1 inh -3%.
`CC(CNC(=O)C(C)C)NC(=O)C(C)C` (stereo not given) gave TDP1 cell noCPT -9%, TDP1 cell CPT 8%, miR-21 FLuc -5%, TDP1 inh 0% and uPA surface inh -2%.
O=C(Nc1ccc2nc(SCC(=O)N3CCOCC3)sc2c1)c1cccc(Br)c1 was read as TDP1 cell noCPT 8.2µM*, TDP1 cell CPT 13µM*, miR-21 FLuc inconclusive and TDP1 inh 3%.
Screening CCC(CC)C(=O)Nc1ccc2nc(SCC(=O)N3CCOCC3)sc2c1 returned TDP1 cell noCPT inconclusive, TDP1 cell CPT inconclusive, miR-21 FLuc 11% and TDP1 inh 5%.
`COc1cccc(C(=O)Nc2ccc3nc(SCC(=O)N4CCOCC4)sc3c2)c1` gave TDP1 cell noCPT 13µM*, TDP1 cell CPT 15µM*, miR-21 FLuc 19% and TDP1 inh -1%.
O=C(Nc1ccc2nc(SCC(=O)N3CCOCC3)sc2c1)c1ccc(Br)cc1 was read as TDP1 cell noCPT 2.3µM*, TDP1 cell CPT inconclusive, miR-21 FLuc 6% and TDP1 inh 2%.
Screening Cc1ccc(-n2cnc3cc(C(=O)NCc4ccc(F)cc4)ccc32)c(C)c1 returned TDP1 cell noCPT inconclusive, TDP1 cell CPT 21µM*, miR-21 FLuc -8% and TDP1 inh 10%.
For Cc1ccc(-n2cnc3cc(C(=O)NC4CCCCCC4)ccc32)c(C)c1 the results were TDP1 cell noCPT 16µM*, TDP1 cell CPT inconclusive, miR-21 FLuc -3% and TDP1 inh 13%.
For COc1ccc(C)cc1-n1cnc2cc(C(=O)NC3CCCCCC3)ccc21 the results were TDP1 cell noCPT inconclusive, TDP1 cell CPT inconclusive, miR-21 FLuc -3% and TDP1 inh 8%.
Screening CC1CCN(C(=O)CN2c3ccc(Br)cc3-c3ccccc3S2(=O)=O)CC1 returned TDP1 cell noCPT 21µM*, TDP1 cell CPT 13µM*, miR-21 FLuc -38% and TDP1 inh 5%.
`COC(=O)C1CCN(C(=O)CN2C(=O)c3ccccc3S2(=O)=O)CC1` gave TDP1 cell noCPT -3%, TDP1 cell CPT inconclusive, TDP1 inh -3% and uPA surface inh 1%.
Screening CC1CCN(C(=O)CN2c3ccc(C(C)C)cc3-c3ccccc3S2(=O)=O)CC1 returned TDP1 cell noCPT 23µM*, TDP1 cell CPT 15µM*, miR-21 FLuc 6% and TDP1 inh -3%.
Screening O=S(=O)(Cc1ccccc1)N1CCCc2ccccc21 returned TDP1 cell noCPT 0%, TDP1 cell CPT 3%, miR-21 FLuc 1%, TDP1 inh 5% and uPA surface inh 0%.
For Cc1ccc(NC(=O)CN(C)S(=O)(=O)c2cccs2)cc1F the results were TDP1 cell noCPT inconclusive, TDP1 cell CPT inconclusive, miR-21 FLuc -20%, TDP1 inh 4% and uPA surface inh 0%.
Screening COc1ccc(Cn2cc(CN3CC(N4CCN(C5CCN(C)CC5)CC4)CS3(=O)=O)nn2)cc1 (stereo not given) returned TDP1 cell noCPT 2% and TDP1 cell CPT 1%.
For CCOC(=O)N1CCC(NC(=O)c2cc3cc4cc(OC)ccc4nc3o2)CC1 the results were TDP1 cell noCPT 21µM*, TDP1 cell CPT inconclusive, miR-21 FLuc -16%, TDP1 inh 5% and uPA surface inh -6%.
CCOC(=O)N1CCC(NC(=O)c2cc(-c3ccc(OC)cc3)nc3ccccc23)CC1 was read as TDP1 cell noCPT inconclusive, TDP1 cell CPT inconclusive, miR-21 FLuc -7%, TDP1 inh 2% and uPA surface inh -6%.
COc1ccc2nc3oc(C(=O)NC4CCN(Cc5ccccc5)CC4)cc3cc2c1 was read as TDP1 cell noCPT 18µM*, TDP1 cell CPT 18µM*, miR-21 FLuc -32%, TDP1 inh 2% and uPA surface inh -1%.
`O=C(C1CCC(CNc2c(N3CCCCC3)c(=O)c2=O)CC1)N1CCc2ccccc2C1` (stereo not given) gave TDP1 cell noCPT 16µM*, TDP1 cell CPT inconclusive, miR-21 FLuc 3%, TDP1 inh 3% and uPA surface inh -6%.
`O=C1C=CC(=O)N1N(c1ccccc1)c1ccccc1` gave TDP1 cell noCPT 21µM*, TDP1 cell CPT 10µM*, miR-21 FLuc -5%, TDP1 inh 8% and uPA surface inh -3%.
O=C1c2ccccc2C(=O)N1N(c1ccccc1)c1ccccc1 was read as TDP1 cell noCPT 3%, TDP1 cell CPT -20% and uPA surface inh -6%.
For CC[C@]12c3[nH]c4ccccc4c3CCN1C(=O)C(CC(=O)NCC13CC4CC(CC(C4)C1)C3)C[C@@H]2C(=O)N1CCN(C(=O)c2ccco2)CC1 (stereo not given in full) the results were TDP1 cell noCPT inconclusive, TDP1 cell CPT inconclusive, TDP1 inh 5% and uPA surface inh inconclusive.
For COc1ccc2c(c1)c1nnc(SC)nc1n2Cc1ccccc1 the results were TDP1 cell noCPT 11µM* and TDP1 cell CPT 10µM*.
`Cc1ccc2c(c1)c1nnc(SCC(=O)N3CCCc4ccccc43)nc1n2CC(=O)O` gave TDP1 cell noCPT -25%, TDP1 cell CPT -29%, miR-21 FLuc -57%, TDP1 inh 0% and uPA surface inh 0%.

Four entries picked at random from the list so far:
COc1ccc2nc3oc(C(=O)NC4CCN(Cc5ccccc5)CC4)cc3cc2c1 was read as TDP1 cell noCPT 18µM*, TDP1 cell CPT 18µM*, miR-21 FLuc -32%, TDP1 inh 2% and uPA surface inh -1%.
`COc1ccc(CC(=O)NCCS(=O)(=O)N2CCN(c3ccccc3OC)CC2)cc1` gave TDP1 cell noCPT inconclusive, TDP1 cell CPT 29µM* and uPA surface inh -1%.
Screening CC1CCN(C(=O)CN2c3ccc(C(C)C)cc3-c3ccccc3S2(=O)=O)CC1 returned TDP1 cell noCPT 23µM*, TDP1 cell CPT 15µM*, miR-21 FLuc 6% and TDP1 inh -3%.
For O=C1CCCC(=O)N1CCCCCCN1C(=O)CCCC1=O the results were TDP1 cell noCPT -5% and TDP1 cell CPT -4%.
